Common to all, as to test: competition binding assay, purified HLA class I
Assay [1] addresses HLA-B*1801 (human).
For assay [2], the target named is HLA-B*4501 (human).
Assay [3] addresses HLA-B*4001 (human).

Consider “WEELSML (MAGE2 position 234, 7-mer) (peptide)”, for which the IC50 worked out at 17.7 µM in assay [1] and 15.1 µM in assay [2].

As to “WEELSML (MAGE2 position 252, 7-mer) (peptide)”, the IC50 in assay [1] stood at 8.29 µM; in assay [3] it was 6.58 µM.

The term IC50 denotes the midpoint of a concentration-inhibition curve. The low end stands for greater potency in that assay, the high end for weaker potency in that assay.

The values above are taken from patent publication EP1903056A2.
